The target in assay [1] is T1, NLRP3 (Homo sapiens, UniProt Q96P20). Put plainly: NLRP3 Inflammasome Assay ([3H]-MCC950 radioligand binding, NLRP3 cell lysate). The conditions noted are these: read-out: NLRP3, IC50 (nM), Example B-1; [3H]-MCC950 radioligand 25 nM working concentration; NLRP3 insect cell lysate 15 μg/well; 1.5 h, room temperature. The method, then:
• 1) Compound dilutions for IC50s test: Starting at 100 μM, 3 fold dilutions were conducted. Next 11 doses were dispensed at 100 DMSO concentration. 9 μL of compound (10 mM stock from compound management team) as added to 384LDV plate. Echo was used for the dilution and transfer the compounds to assay the plate at 100 μM (top concentration at 1%~DMSO, 1.25 μL). • 2) Radioligand dilution: working concentration was 25 nM [^3H]-MCC950. 1 μL. [^3H]-MCC950 (23 μM stock) was added to 919 μL assay buffer. • 3) Prepare and transfer 100 μl of insect cell lysate to a 96-well assay plate. Final concentration: 15 μg/well for IC50 test. • 4) Transfer 25 μL of diluted ligand to the assay plate. • 5) Cover assay plates with foil tape and incubate 1.5 hour, at room temperature with gentle shaking. • 6) Using the Packard Harvester, filler the wells of the assay plate through the wells of the GF/B filter plates. Wash 8 times with cold washing buffer (4 °C, 0.4 mL per well per wash). • 7) Place the filter plates in an oven for 0.5 hours at 50 °C. • 8) Seal the bottom of the dry filter plates with backing tape. Dispense 50 μL Microscint-20 to each well of the filter plate and cover GF/B plate with TopSeal-A. • 9) Microbeta was used to count the signal. • 10) Microbeta Setting: Count Time was 30 seconds per well.

The chains behind the UniProt entries cited, without tags or fusion partners.
UniProt Q96P20, whole entry: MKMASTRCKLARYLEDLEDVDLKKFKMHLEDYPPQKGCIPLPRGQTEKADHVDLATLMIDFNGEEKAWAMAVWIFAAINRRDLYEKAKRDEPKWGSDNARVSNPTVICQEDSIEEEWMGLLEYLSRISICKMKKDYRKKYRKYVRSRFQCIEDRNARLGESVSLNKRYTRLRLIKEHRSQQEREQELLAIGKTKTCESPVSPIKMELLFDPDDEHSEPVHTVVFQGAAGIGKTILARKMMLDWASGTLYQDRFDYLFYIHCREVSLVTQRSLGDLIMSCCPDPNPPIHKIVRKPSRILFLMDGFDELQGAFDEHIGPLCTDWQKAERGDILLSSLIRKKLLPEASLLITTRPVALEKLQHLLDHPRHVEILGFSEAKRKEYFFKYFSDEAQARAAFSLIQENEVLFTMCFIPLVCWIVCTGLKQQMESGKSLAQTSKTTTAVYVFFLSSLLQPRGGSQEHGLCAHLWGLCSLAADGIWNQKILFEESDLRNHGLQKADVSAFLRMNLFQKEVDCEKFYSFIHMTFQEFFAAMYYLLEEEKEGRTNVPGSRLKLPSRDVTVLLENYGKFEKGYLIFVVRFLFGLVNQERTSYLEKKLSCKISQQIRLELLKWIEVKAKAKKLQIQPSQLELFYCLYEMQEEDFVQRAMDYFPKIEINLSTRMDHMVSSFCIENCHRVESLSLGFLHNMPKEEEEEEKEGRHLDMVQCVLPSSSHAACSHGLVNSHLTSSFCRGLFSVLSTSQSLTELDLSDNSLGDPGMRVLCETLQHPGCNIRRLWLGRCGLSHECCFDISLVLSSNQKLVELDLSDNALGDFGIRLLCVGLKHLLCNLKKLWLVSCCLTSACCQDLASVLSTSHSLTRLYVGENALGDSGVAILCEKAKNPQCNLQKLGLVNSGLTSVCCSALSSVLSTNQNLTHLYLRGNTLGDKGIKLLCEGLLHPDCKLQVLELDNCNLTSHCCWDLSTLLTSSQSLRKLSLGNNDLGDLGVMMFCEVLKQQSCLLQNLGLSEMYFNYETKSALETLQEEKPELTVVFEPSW

The test system of the next assay is THP-1 cells. The assay is described as follows: IL-1β Release THP-1 Assay. The conditions noted are these: read-out: THP-1 IL-1β, IC50 (nM), Example B-3; PMA-differentiated THP-1; LPS 3 h, compound 30 min, Nigericin 1 h; IL-1β by Elisa. The method, then:
THP-1 cells Culture RPM11640 medium, 10% FBS, 1% PS, 55 uM β-Mer at 37 °C & 5% CO2 incubator.
• 1) Seed THP-1 in complete RPMI 1640 medium containing PMA into 96 well plate coated with poly-L-lysin incubate for 24 hours. • 2) Remove medium, wash the differentiated THP-1 cells with PBS, add FBS free RPMI 1640 medium. • 3) Add LPS and incubate for 3 hours at 37 °C & 5% CO2 incubator. • 4) Add compounds and incubate for 30 minutes at 37 °C & 5% CO2 incubator. • 5) Add Nigericin and incubate for 1 hour at 37 °C & 5% CO2 incubator. • 6) Collect supernatant to test IL-1β by Elisa.
• a) Assay robustness check with DMSO and Low control data:
change %=Sample/Ave_L*100 • b) Fit the cpd IC50 from non-linear regression equation:
Y=Bottom+(Top−Bottom)/(1+10^((Log IC50−X)*HillSlope)) • X: cpd concentration • Y: change % • Top and Bottom: Plateaus in same units as Y • log IC50: same log units as X • HillSlope: Slope factor or Hill slope

In assay [2] the target is T1, NLRP3. Put plainly: NLRP3 Enzymatic Activity ADP-Glo Assay. The conditions noted are these: read-out: NLRP3_ADP-Glo_IC50 (nM), Example B-4; NLRP3 15 nM, ATP 1 μM; 0.5% DMSO; 90 min, room temperature. The procedure: NLRP3 activity test experiment, measuring the hydrolysis of NLRP3 on the substrate ATP using the ADP-Glo assay. First, after adding an inhibitor containing 0.5% DMSO with Echo, add 5 μL of NLRP3 (ICE, YM2306T-H06MHS) enzyme solution to each well, centrifuge at 1000 rpm for 1 min at room temperature and react for 10 min. Then add 5 μL of ATP (Promega, V915A) substrate solution to each well for 90 min at room temperature; NLRP3 and ATP were prepared in 50 mM HEPES, 10 mM MgCl2, 0.01% Brij-35, 1 mM EGTA, and 2 mM DTT buffers at final concentrations of 15 nM and 1 μM, respectively. Subsequently, 10 μL ADP-Glo reagent solution (Promega, V9102) was added into each assay well, centrifuged at 1000 rpm for 1 min, and then incubated at room temperature for 45 min. Finally, 20 uL ADP-Glo detection solution (Promega, V9102) is added to each well, centrifuged at 1000 rpm for 1 min and reacted for 45 min at room temperature. The luminescence signal values were read using a BMG instrument and the IC50 values were determined by fitting the data to an S-shaped dose-response curve using nonlinear regression.

Results on 21 compounds are retold here after patent publication US20260382631A1, “NLRP3 INFLAMMASOME INHIBITORS AND USES THEREOF” (published 2026).

In the case of `CN1CCC[C@@H](N2CCn3ncc4c(-c5ccc(C(F)(F)F)cc5O)nnc2c43)C1`, the IC50 on NLRP3 [1] and with THP-1 cells was 10 to 100 nM in each case. `COc1cc(C)c(-c2cnc3c(n2)nc2n3CCN2[C@@H]2CCCN(C)C2)c(O)c1`: the IC50 with THP-1 cells and at NLRP3 [2] was 10 to 100 nM each time. For the compound `Oc1cc(C(F)(F)F)ccc1-c1nnc2c3c1cnn3CCCN2[C@@H]1CCC[C@H]1O`, the IC50 with THP-1 cells and at NLRP3 [2] was 100 to 1000 nM in each case. Turning to `OCCN1CCCn2ncc3c(-c4ccc(C(F)(F)F)cc4O)nnc1c32`, at NLRP3 [2], the IC50 was in the range of 10 to 100 nM. For the compound `CN1CCC[C@@H](N2CCCc3ncc4c(-c5ccc(C(F)(F)F)cc5O)nnc2n34)C1`, the IC50 at NLRP3 [1] and with THP-1 cells was 10 to 100 nM throughout. For `C[C@@H](O)CN1CCCn2ncc3c(-c4ccc(C(F)(F)F)cc4O)nnc1c32`, the IC50 on NLRP3 [1] and in the assay on THP-1 cells was 100 to 1000 nM throughout. In the case of `OCC(O)CN1CCCn2ncc3c(-c4ccc(C(F)(F)F)cc4O)nnc1c32` (centres unmarked), the IC50 on NLRP3 [2] was 100 to 1000 nM. `Oc1cc(C(F)(F)F)ccc1-c1nnc2c3c1cnn3CCN2[C@H]1CN2CCC1CC2`: the IC50 on NLRP3 [1] is over 1000 nM. Take `Oc1cc(C(F)(F)F)ccc1-c1nnc2c3c1cnn3CCCN2`: the IC50 at NLRP3 [2] is over 1000 nM. Consider `CN1C[C@H](F)C[C@@H](N2CCn3ncc4c(-c5ccc(C(F)(F)F)cc5O)nnc2c43)C1`, for which the IC50 on NLRP3 [1] fell in the range of 100 to 1000 nM. Turning to `CC(C(O)CO)N1CCCn2ncc3c(-c4ccc(C(F)(F)F)cc4O)nnc1c32` (centres unmarked), the IC50 at NLRP3 [2] was over 1000 nM. For the compound `Cc1cc(C#N)cc(O)c1-c1cnc2c(n1)nc1n2CCN1[C@@H]1CCCN(C)C1`, the IC50 in the assay with THP-1 cells and on NLRP3 [2] was 10 to 100 nM in each case. Turning to `Cc1cc(C(F)(F)F)cc(O)c1-c1cnc2c(n1)nc1n2CCN1[C@@H]1CCCN(C)C1`, the IC50 was under 10 nM in the assay with THP-1 cells and 10 to 100 nM on NLRP3 [2]. For `Oc1cc(C(F)(F)F)ccc1-c1nnc2c3c1cnn3CCCN2[C@@H]1CC[C@@H](O)C1`, the IC50 at NLRP3 [2] lay within 100 to 1000 nM. In the case of `C[C@@H](O)CN1CCn2ncc3c(-c4ccc(C(F)(F)F)cc4O)nnc1c32`, the IC50 on NLRP3 [1] fell in the range of 100 to 1000 nM. Regarding `Oc1cc(C(F)(F)F)ccc1-c1nnc2c3c1cnn3CCCN2[C@@H]1CC[C@@H]1O`, the IC50 on NLRP3 [2] lay in the range of 100 to 1000 nM. In the case of `C[C@H](CO)N1CCCn2ncc3c(-c4ccc(C(F)(F)F)cc4O)nnc1c32`, the IC50 on NLRP3 [1] was 100 to 1000 nM. Regarding `CC(CO)CN1CCCn2ncc3c(-c4ccc(C(F)(F)F)cc4O)nnc1c32` (centres unmarked), in the assay on THP-1 cells, the IC50 was in the range of 100 to 1000 nM. With `CN1CCC[C@@H](N2CCCn3ncc4c(-c5ccc(C(F)(F)F)cc5O)nnc2c43)C1`, the IC50 on NLRP3 [1] and in the assay with THP-1 cells was 10 to 100 nM each time. On to `C[C@@]1(O)CCC[C@H]1N1CCCn2ncc3c(-c4ccc(C(F)(F)F)cc4O)nnc1c32`, for which the IC50 on NLRP3 [2] is over 1000 nM. On the same count and under the same terms, next, `C[C@H](O)CN1CCCn2ncc3c(-c4ccc(C(F)(F)F)cc4O)nnc1c32`: 100 to 1000 nM.
